Patent publication US7927613B2, “Pharmaceutical co-crystal compositions” (University of South Florida, priority 2002, dated 2011)

Key:
[1] = over previously known forms of carbamazepine; molar solubility, aqueous solutions
[2] = as compared to the API
Dissolution profile = type: physicochemical
From the text: In another aspect of the present invention, the dissolution profile of the API is modulated whereby the aqueous dissolution rate or the dissolution rate in simulated gastric fluid or in simulated intestinal fluid, or in a solvent or plurality of solvents is increased. Dissolution rate is the rate at which API solids dissolve in a dissolution medium. For APIs whose absorption rates are faster than the dissolution rates (e.g., steroids), the rate-limiting step in the absorption process is often the dissolution rate. Because of a limited residence time at the absorption site, APIs that are not dissolved before they are removed from intestinal absorption site are considered useless. Therefore, the rate of dissolution has a major impact on the performance of APIs that are poorly soluble. Because of this factor, the dissolution rate of APIs in solid dosage forms is an important, routine, quality control parameter used in the API manufacturing process. Dissolution rate=K S(Cs−C) where K is dissolution rate constant, S is the surface area, Cs is the apparent solubility, and C is the concentration of API in the dissolution medium. For rapid API absorption, Cs−C is approximately equal to Cs The dissolution rate of APIs may be measured by conventional means known in the art. […] Conditions under which the dissolution rate is measured is the same as discussed above The increase in dissolution may be further specified by the time the composition remains supersaturated before reaching equilibrium solubility.

[3] = vs. celecoxib sodium (FIG. 29)
[4] = vs. itraconazole free base (FIG. 28)

Substance: Carbamazepine:saccharin (Form II) [carbamazepine/saccharin]
solubility [1]: improved solubility over previously known forms of carbamazepine

Substance: carbamazepine:saccharin [carbamazepine and saccharin]
form diversity [2]: reduced form diversity as compared to the API

dissolution profile (Dissolution profile; vs. celecoxib free acid (FIG. 27)): modulated dissolution profile
hygroscopicity profile [3]: improved hygroscopicity profile
Substance: celecoxib:nicotinamide [Celecoxib: nicotinamide]

dissolution profile (Dissolution profile; [4]): modulated dissolution profile
Substance: itraconazole and succinic acid [Itraconazole: succinic acid]

dissolution profile (Dissolution profile; [4]): modulated dissolution profile
Substance: itraconazole and tartaric acid [itraconazole:tartaric acid]

One block for each substance: values may come before it.
